{
  "sequences": {"note": "Sequences of proteins named here, by UniProt entry; tags and fusion partners are left off. Residues count along the entry.", "UniProt Q00987, 17-125": "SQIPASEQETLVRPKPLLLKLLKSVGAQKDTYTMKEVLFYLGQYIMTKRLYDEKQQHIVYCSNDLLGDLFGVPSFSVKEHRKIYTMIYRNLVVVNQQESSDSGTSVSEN"},
  "source": "patent EP2951180B1",
  "about": "“2,6,7,8 SUBSTITUTED PURINES AS HDM2 INHIBITORS” (Merck Sharp & Dohme Corp., priority 2013, dated 2014)",
  "key": {"[1]": {"molecular_target": "T1, HDM2 (Homo sapiens, UniProt Q00987)", "T1 construct": "Thioredoxin (N); made in house; host or cells: E. coli strain BL21(DE3)Rosetta", "assay": "HDM2 FRET assay (inhibition of binding of FITC labeled p53-pocket peptide to HDM2)"}, "[2]": {"molecular_target": "T1, HDM2", "assay": "FRET assay (HDM2 inhibition; method not described in this part)", "format": "binding"}, "[3]": {"conditions": "0.5 nM HDM2 (residues 17 to 125), 3nM peptide, two hour incubation at room temperature"}},
  "data": [
    {"smiles": "Cc1cccc(-c2nc3nc(C(=O)O)nc(OC(C)C4CCC4)c3n2Cc2ccc(C(F)(F)F)cc2)c1", "note": "(racemic) [Example 17.4, 6-(1-cyclobutylethoxy)-8-(3-methylphenyl)-7-[4-(trifluoromethyl)benzyl]-7H-purine-2-carboxylic acid]", "values": [
      {"measurement": "IC50", "setting": "[1]; [3]", "value": 67.1, "unit": "nM"}
    ]},
    {"smiles": "C[C@@H](Nc1nc(-c2noc(=O)[nH]2)nc2nc(N3CCCC4COCCC43)n(C[C@H]3CC[C@H](C)CC3)c12)C1CCC1", "note": "(single isomer, unassigned) [Example 11.143]", "values": [
      {"measurement": "IC50", "setting": "[1]; Table 11", "value": 12.6, "unit": "nM"}
    ]},
    {"smiles": "C[C@@H](Nc1nc(-c2noc(=O)[nH]2)nc2nc(N3CCCC4COCCC43)n(C[C@H]3CC[C@H](C)CC3)c12)C1CCC1", "note": "(single isomer, unassigned) [Example 11.144]", "values": [
      {"measurement": "IC50", "setting": "[1]; Table 11", "value": 5.67, "unit": "nM"}
    ]},
    {"smiles": "C[C@@H](Nc1nc(-c2noc(=O)[nH]2)nc2nc(N3CCO[C@H](C)[C@@H]3C)n(C[C@H]3CC[C@H](C)CC3)c12)C1CCC1", "note": "(single isomer, unassigned) [Example 11.146]", "values": [
      {"measurement": "IC50", "setting": "[1]; Table 11", "value": 20.1, "unit": "nM"}
    ]},
    {"smiles": "C[C@@H](Nc1nc(-c2noc(=O)[nH]2)nc2nc(N3CCO[C@H](C)[C@@H]3C)n(C[C@H]3CC[C@H](C)CC3)c12)C1CCC1", "note": "(single isomer, unassigned) [Example 11.147]", "values": [
      {"measurement": "IC50", "setting": "[1]; Table 11", "value": 9.19, "unit": "nM"}
    ]},
    {"smiles": "C[C@@H](Nc1nc(-c2noc(=O)[nH]2)nc2nc(N3CCO[C@H]4CCCC[C@H]43)n(C[C@H]3CC[C@H](C)CC3)c12)C1CCC1", "note": "(single isomer, unassigned) [Example 11.159]", "values": [
      {"measurement": "IC50", "setting": "[1]; Table 11", "value": 12.1, "unit": "nM"}
    ]},
    {"smiles": "C[C@@H](Nc1nc(-c2noc(=O)[nH]2)nc2nc(N3CCO[C@H]4CCCC[C@H]43)n(C[C@H]3CC[C@H](C)CC3)c12)C1CCC1", "note": "(single isomer, unassigned) [Example 11.160]", "values": [
      {"measurement": "IC50", "setting": "[1]; Table 11", "value": 3.93, "unit": "nM"}
    ]},
    {"smiles": "C[C@@H]1COCCN1c1nc2nc(-c3noc(=O)[nH]3)nc(N[C@H](C)C3CCC3)c2n1C[C@H]1CC[C@H](C)C(F)(F)C1", "note": "(single isomer, unassigned) [Example 18.31]", "values": [
      {"measurement": "IC50", "setting": "[1]; Table 18", "value": 8.12, "unit": "nM"}
    ]},
    {"smiles": "C[C@@H]1COCCN1c1nc2nc(-c3noc(=O)[nH]3)nc(N[C@H](C)C3CCC3)c2n1C[C@H]1CC[C@H](C)C(F)(F)C1", "note": "(single isomer, unassigned) [Example 18.32]", "values": [
      {"measurement": "IC50", "setting": "[1]; Table 18", "value": 11.2, "unit": "nM"}
    ]},
    {"smiles": "COc1ccccc1C(C)(F)c1nc2nc(-c3n[nH]c(=O)o3)nc(-c3cncc(Cl)c3)c2n1C[C@H]1CC[C@H](C)CC1", "note": "(single isomer, unassigned) [Example 23.24, 5-{6-(5-chloropyridin-3-yl)-8-[1-fluoro-1-(2-methoxyphenyl)ethyl]-7-[(trans-4-methylcyclohexyl)methyl]-7H-purin-2-yl}-1,3,4-oxadiazol-2(3H)-one]", "values": [
      {"measurement": "IC50", "setting": "[1]; Table 23", "value": 7.81, "unit": "nM"}
    ]},
    {"smiles": "CC(C)Oc1ccnc(-c2nc3nc(C(=O)O)nc(N[C@H](C)C4CCC4)c3n2Cc2ccc(C(F)(F)F)cc2)c1", "note": "[Example 1.59, 6-{[(1R)-1-cyclobutylethyl]amino}-8-[4-(1-methylethoxy)pyridin-2-yl]-7-[4-(trifluoromethyl)benzyl]-7H-purine-2-carboxylic acid]", "values": [
      {"measurement": "IC50", "setting": "[2]", "value": 7.05, "unit": "nM"}
    ]},
    {"smiles": "Cc1cc(CN(C)c2nc3nc(-c4noc(=O)[nH]4)nc(N[C@H](C)C4CCC4)c3n2C[C@H]2CC[C@H](C)CC2)on1", "note": "[Example 11.77, 3-(6-{[(1R)-1-cyclobutylethyl]amino}-7-[(trans-4-methylcyclohexyl)methyl]-8-{methyl[(3-methylisoxazol-5-yl)methyl]amino}-7H-purin-2-yl)-1,2,4-oxadiazol-5(2H)-one]", "values": [
      {"measurement": "IC50", "setting": "[1]; Table 11", "value": 12.6, "unit": "nM"}
    ]},
    {"smiles": "Cc1ccc(C)c(-c2nc3nc(C(N)=O)nc(N[C@H](C)C4CCC4)c3n2Cc2ccc(C(F)(F)F)cc2)c1", "note": "[Example 12.31, 6-{[(1R)-1-cyclobutylethyl]amino}-8-(2,5-dimethylphenyl)-7-[4-(trifluoromethyl)benzyl]-7H-purine-2-carboxamide]", "values": [
      {"measurement": "IC50", "setting": "[1]; [3]", "value": 37.7, "unit": "nM"}
    ]},
    {"smiles": "Cc1nc2nc(-c3noc(=O)[nH]3)nc(N[C@H](C)C3CCC3)c2n1C[C@H]1CC[C@H](C)CC1", "note": "[Example 21.10, 3-(6-{[(1R)-1-cyclobutylethyl]amino}-8-methyl-7-[(trans-4-methylcyclohexyl)methyl]-7H-purin-2-yl)-1,2,4-oxadiazol-5(4H)-one]", "values": [
      {"measurement": "IC50", "setting": "[1]; Table 21", "value": 37.7, "unit": "nM"}
    ]},
    {"smiles": "CC(c1ccccc1F)c1nc2nc(-c3noc(=O)[nH]3)nc(N[C@H](C)C3CCC3)c2n1C[C@H]1CC[C@H](C)CC1", "note": "(stereo partly drawn) [Example 21.33, 3-(6-{[(1R)-1-cyclobutylethyl]amino}-8-[1-(2-fluorophenyl)ethyl]-7-[(trans-4-methylcyclohexyl)methyl]-7H-purin-2-yl)-1,2,4-oxadiazol-5(4H)-one]", "values": [
      {"measurement": "IC50", "setting": "[1]; Table 21", "value": 5.67, "unit": "nM"}
    ]}
  ]
}
